Here are results for one molecule from patent US4495356A, “1,4-Dihydropyridine compound” (Nikken Chemicals Co., Ltd., priority 1982, dated 1985).

The nature of this data set: in vivo. The following applies: rat, oral, rats 5 week age, observed for 3 days.

`COC(=O)C1=C(C)NC(C)=C(C(=O)OC)C1C1=COCCO1` [Example 3, 3,5-dimethoxycarbonyl-4-2'-(5',6'-dihydro-p-dioxinyl)-2,6-dimethyl-1,4-dihydropyridine]: the LD50 (as a rule, the dose at which mortality reaches 50%) at 72 h was no less than 2000 mg/kg.
